Assay: Inhibition of [3H]spiperone binding to Dopamine receptor D3 in bovine cortex

**Q.** With `CCCN(CCC)C1CCc2cccc(O)c2C1` (stereo unspecified) as the molecule, how does the Ki read?
**A.** 14.6 µM
